Source: ChEMBL document CHEMBL1144431, “6-Hydroxy-1,2,3,4-tetrahydro-isoquinoline-3-carboxylic acid mimics active conformation of tyrosine in opioid peptides” (Bioorg Med Chem Lett, 2005)

Sequences of proteins named here, by UniProt entry; tags and fusion partners are left off.
UniProt P33535, whole entry: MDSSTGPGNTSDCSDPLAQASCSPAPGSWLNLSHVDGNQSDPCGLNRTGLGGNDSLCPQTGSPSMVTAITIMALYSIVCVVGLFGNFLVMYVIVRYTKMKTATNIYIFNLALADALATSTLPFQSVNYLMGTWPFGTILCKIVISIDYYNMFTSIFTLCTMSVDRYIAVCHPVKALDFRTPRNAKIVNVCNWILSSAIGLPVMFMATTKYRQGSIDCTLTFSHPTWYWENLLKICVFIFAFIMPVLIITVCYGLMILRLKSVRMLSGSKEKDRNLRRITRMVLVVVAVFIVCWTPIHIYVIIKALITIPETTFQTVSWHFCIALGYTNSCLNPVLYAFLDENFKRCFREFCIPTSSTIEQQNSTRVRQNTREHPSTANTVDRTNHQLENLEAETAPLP

Target: Mu-type opioid receptor (Rattus norvegicus, UniProt P33535)
Experiment: Inhibition of [3H]naloxone binding to rat brain homogenate Opioid receptor mu

**Q.** For `C[C@@H](NC(=O)[C@@H](N)Cc1ccc(O)cc1)C(=O)N[C@@H](Cc1ccccc1)C(=O)N[C@@H](Cc1ccccc1)C(N)=O`, which Ki is on record?
**A.** 5.1 nM
